Assays:
ATG4B = target: T1, ATG4B (Homo sapiens, UniProt Q9Y4P1); conditions: compared with literature inhibitors [24]
T1 sequence (Q9Y4P1 1-393): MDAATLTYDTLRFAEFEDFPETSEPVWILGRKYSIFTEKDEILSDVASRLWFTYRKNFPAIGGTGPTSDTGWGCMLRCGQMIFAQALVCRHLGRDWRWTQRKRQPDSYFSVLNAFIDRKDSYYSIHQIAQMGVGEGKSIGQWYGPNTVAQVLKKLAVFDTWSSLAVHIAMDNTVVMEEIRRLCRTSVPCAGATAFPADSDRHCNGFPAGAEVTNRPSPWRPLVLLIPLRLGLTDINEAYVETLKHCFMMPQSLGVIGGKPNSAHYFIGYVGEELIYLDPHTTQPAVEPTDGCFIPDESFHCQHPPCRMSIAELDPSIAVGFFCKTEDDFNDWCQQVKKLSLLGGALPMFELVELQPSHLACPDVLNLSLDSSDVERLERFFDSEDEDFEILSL

By UniProt entry, the sequences of proteins in these tests, tags left out. Residues count along the entry.
UniProt P42574, 29-175: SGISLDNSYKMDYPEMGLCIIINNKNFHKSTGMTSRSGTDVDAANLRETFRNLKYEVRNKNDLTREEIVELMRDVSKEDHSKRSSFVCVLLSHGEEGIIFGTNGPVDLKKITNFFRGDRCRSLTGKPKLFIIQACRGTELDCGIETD
UniProt P42574, 176-277: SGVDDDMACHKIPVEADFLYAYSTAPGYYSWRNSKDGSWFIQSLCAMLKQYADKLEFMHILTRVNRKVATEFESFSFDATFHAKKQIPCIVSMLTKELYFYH
UniProt P29466, 317-404: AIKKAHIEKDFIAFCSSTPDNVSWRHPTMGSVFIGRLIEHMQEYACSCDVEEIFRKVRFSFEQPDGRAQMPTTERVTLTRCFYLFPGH
UniProt P29466, 120-297: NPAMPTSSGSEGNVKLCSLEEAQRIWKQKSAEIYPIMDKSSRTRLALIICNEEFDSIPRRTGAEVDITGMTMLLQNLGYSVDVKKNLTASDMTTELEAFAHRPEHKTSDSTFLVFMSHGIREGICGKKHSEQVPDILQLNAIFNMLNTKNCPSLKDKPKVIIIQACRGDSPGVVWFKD

caspase-3 = caspase-3 (Homo sapiens, UniProt P42574); conditions: various concentrations of Tc, 0.5 nM caspase-3, 100 μM Ac-DEVD-AFC, FIG. 3
caspase-1 = caspase-1 (Homo sapiens, UniProt P29466); conditions: low dose, Tc 2.5 μM, FIG. 3

`Clc1ccc(C(Cn2ccnc2)OCc2ccsc2Cl)c(Cl)c1` (stereo not drawn) [tioconazole] was tested, and the “potency relative to currently reported ATG4 inhibitors” value (ATG4B) was “approximately 30 fold”, the “selectivity for ATG4B in caspase-3 counter screen” value (caspase-3) was “selectively inhibited ATG4B” and the “selectivity for ATG4B in caspase-1 counter screen” value (caspase-1) was “selectively inhibited ATG4B”.

From patent publication US10583123B2, “Method for the treatment of ATG4-related disorders” (National Tsing Hua University, priority 2017, dated 2020)
